The values below are quoted from earlier work in publication PMC11926880, “Procognitive Potential of Neuroprotective Triazine 5-HT6 Receptor Antagonists Tested on Chronic Activity In Vivo in Rats: Computer-Aided Insight into the Role of Chalcogen-Differences on the Pharmacological Profile” (ACS Chemical Neuroscience, 2025).

Each structure is given as a SMILES string.

On the set-up of this data set: method as in PMID 38190615. The settings on record: serum, 1 mg/kg i.p.; cited from earlier work.

On to `CN1CCN(c2nc(N)nc(C(C)(C)[Se]c3ccc4ccccc4c3)n2)CC1` [PPK-32], for which the t0.5λz is recorded as 68.7 min.
